Measured values published in patent US4283422A (priority 1979, dated 1981).
Where a name gives a salt, the structure may show the parent alone.

System: MDCK cells

In the case of `NC12CC3CC(CC(C3)C1)C2` [Amantadine hydrochloride], the relative toxicity is reported as “twice as toxic as 3-dimethylamino-4-homoisotwistane hydrochloride”.
